Bioassay records: PubChem BioAssay, National Center for Advancing Translational Sciences (NCATS)
ALDH1A1 inh = blocks purified human ALDH1A1 activity; P00352; Purified ALDH1A1, NADH fluorescence, propionaldehyde substrate; Potency, µM (top dose mostly 75.3 µM), for inactives: top-dose activity, negative = inhibition, actives largely listed as inhibitors; 220,000 tested, 7.3% active; AID 1030; active means well fitted inhibition curve with a large enough effect, not every such curve was filed as active; inconclusive means small, poorly fitted or top-dose-only effect, or another doubt; inactive means no such curve, though single readings can be large or run the other way;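 further: potency means the concentration at half of the fitted maximal effect; plate controls were no enzyme wells and a reference inhibitor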
Sfp PPTase inh = qHTS Assay for Inhibitors of Bacillus subtilis Sfp phosphopantetheinyl transferase (PPTase); 4'-phosphopantetheinyl transferase ffp (Bacillus subtilis), Q9F4F7; Biochemical Sfp PPTase activity, qHTS; Potency, µM, for inactives: max response, negative = inhibition, most hits filed as inhibitors; hit rate 3.5% among 310,000; AID 1490, 2009; active = well fitted inhibition curve with a large enough effect; inconclusive = small, poorly fitted or top-dose-only effect, or another doubt; inactive = no such curve, though single readings can be large or run the other way;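 also: the enzyme is Sfp with the accession as filed and its product quenches rhodamine fluorescence; potency is read from the fitted curve at half-maximal effect; 0% = enzyme reaction without inhibitor and -100% = no enzyme wells; top concentration of the series not given in the record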
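Buffer: 50 mM Hepes-Na pH 7.6, 10 mM MgCl2, 0.01% Nonidet P-40, 0.01% BSA. Enzyme 15 nM, pre-exposed to compound 15 min; substrates then added and fluorescence change tracked over 30 min.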
G9a block = blocks human histone lysine methyltransferase G9a | G9a H3K9 monomethylation, AlphaScreen, 2 h | 350,000 tested, 8.8% active | AID 504332 | Q96KQ7 | Potency, µM (titrated, usually from 102 µM), inactives show at the top dose activity, negative = inhibition, hits mostly inhibitors; further: potency means the concentration at half of the fitted maximal effect; on the % scale 0 is the no-effect control and ±100 the full control effect; nearly all actives have a fitted effect of over 75% in size
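Quantitative HTS format: methyltransferase activity on a biotin-tagged H3K9 peptide is measured by AlphaScreen, using a rabbit anti-monomethyl-H3K9 antibody with streptavidin donor and anti-IgG acceptor beads. Final levels are 20 nM enzyme, 500 nM peptide, 20 uM SAM; 2 h RT.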
Lamin A splicing = modulators of lamin A splicing. HeLa LMNA splicing GFP/RFP minigene ratio, 48 h. Potency, µM (top dose mostly 46.1 µM), without a hit: top-dose ratio change, negative = inhibition, usual class: inhibitors. 200,000 tested, 0.01% active. AID 1487; active means well fitted inhibition curve with a large enough effect in the signal ratio, with a control signal flat, not every such curve was filed as active; inconclusive means small, poorly fitted or top-dose-only effect, or effect the other way, or a change in a side signal; the % refers to the signal ratio; further: potency means the concentration at half of the fitted maximal effect; on the % scale 0 is the no-effect control and ±100 the full control effect
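Read-out is the ratio of GFP to DsRed2 object intensity, acquired by 488 nm laser-scanning cytometry on HeLa lamin A-EGFP minigene reporter cells. Compound incubation 48 hrs at 37 °C in Opti-MEM with 2% FBS; DMSO 0.5% final.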
miR-21 FLuc = miR-21 reporter, rising signal | AID 2288 | HeLa miR-21 FLuc reporter, luciferase, 48 h | 340,000 tested, under 10 active | Potency, µM (titrated, usually from 38.3 µM), for the others: at the top dose reporter change, positive = more light; active = well fitted rising curve with a large enough effect; inconclusive = small, poorly fitted or top-dose-only effect; inactive = no such curve, though single readings can be large or run the other way;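 also: % of control where 0% means no effect; miR-21 action dims this reporter so a rising signal means less miR-21 action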
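HeLa cells stably expressing CMV-driven firefly luciferase with a downstream miR-21 binding sequence, endogenously expressing miR-21, were treated with titrations (up to about 40uM final) for 48 hours at 37 degree Celsius. Luciferase luminescence was read after lysis.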
KDM4E inh = JMJD2E (human) inhibition; B2RXH2; JMJD2E catalytic domain, FDH-coupled NADH fluorescence (FDH is formaldehyde dehydrogenase); Potency, µM (doses to about 57.1 µM), for the others: top-dose activity change, negative = inhibition, most hits filed as inhibitors; 230,000 tested, 1.6% active; AID 2147; active means well fitted inhibition curve with a large enough effect, not every such curve was filed as active; inconclusive means small, poorly fitted or top-dose-only effect, or another doubt; inactive means no such curve, though single readings can be large or run the other way;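 further: potency means the concentration at half of the fitted maximal effect; 0% = wells with enzyme and -100% = buffer wells without enzyme; nearly all actives have a fitted effect of over 50% in size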
Sfp PPTase conf = confirmation of Bacillus subtilis Sfp PPTase inhibitors; Potency, µM (titrated, usually from 114 µM), without a hit: at the highest dose activity change, negative = inhibition, actives largely listed as inhibitors; 380 tested, 79% active; Sfp PPTase enzymatic assay, qHTS titration; shares compounds with Sfp PPTase inh;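 further: potency means the concentration at half of the fitted maximal effect; plate controls were uninhibited Sfp reaction for no effect and no enzyme control for full effect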
Active calls of the source: *; [ ] = remark or other dose. A selection: hits, their analogues and other compounds. The true share with any hit is near 13%. Unless noted, the call rests on the fitted dose curve; in most records, active means well fitted curve in the direction sought with a large enough effect; inconclusive means small, poorly fitted or top-dose-only effect, or another doubt; inactive means no such curve, though single readings can be large; an effect the other way counts as inactive or inconclusive.

How did CCOC(=O)c1c(-c2ccc(C)o2)csc1NC(=O)CSc1nnnn1-c1ccccc1 do in these assays?
ALDH1A1 inh: 1.6µM*; Sfp PPTase inh: 3.5µM*; G9a block: inconclusive; Lamin A splicing: inconclusive; miR-21 FLuc: 1%; KDM4E inh: -12%; Sfp PPTase conf: 9.4µM*

Results for CCCOc1ccc(CN(C(=O)c2nc(SC(C)C)ncc2Cl)C2CCS(=O)(=O)C2)cc1 (stereo not drawn) ?
G9a block: -6%[59 µM]; miR-21 FLuc: 13%

How did COc1ccc(NC(=O)c2cccc(C#N)c2)cc1NS(=O)(=O)c1ccc(F)cc1 do in these assays?
ALDH1A1 inh: inconclusive; Sfp PPTase inh: -7%; G9a block: 8%[59 µM]; Lamin A splicing: 0%; miR-21 FLuc: -1%; KDM4E inh: 467%

What do the screens show for `CCSc1nnc(NC(=O)C2CCCCC2C(=O)OCC(F)(F)C(F)F)s1` (stereo not drawn)?
ALDH1A1 inh: inconclusive; Sfp PPTase inh: 22µM*; G9a block: inconclusive; Lamin A splicing: -7%; miR-21 FLuc: -11%; KDM4E inh: -5%; Sfp PPTase conf: 53µM*

What do the screens show for `COc1ccccc1C1=Nn2c(COc3ccccc3)nnc2SC1`?
ALDH1A1 inh: 14µM*; Sfp PPTase inh: 14µM*; G9a block: 3.2µM*; Lamin A splicing: -9%[46 µM]; miR-21 FLuc: -8%; KDM4E inh: inconclusive; Sfp PPTase conf: 11µM*

Results for c1ccc(OCc2nnc3n2N=C(c2ccccc2)CS3)cc1 ?
ALDH1A1 inh: 10µM*; Sfp PPTase inh: 16µM*; G9a block: 7.9µM*; Lamin A splicing: 24%[9.22 µM]; miR-21 FLuc: -27%; KDM4E inh: inconclusive; Sfp PPTase conf: 17µM*

Results for COc1ccc(OCc2nnc3n2N=C(c2ccc(C)cc2)CS3)cc1 ?
ALDH1A1 inh: inconclusive; Sfp PPTase inh: 6%; G9a block: inconclusive; Lamin A splicing: -1%; miR-21 FLuc: -10%; KDM4E inh: 4%

What do the screens show for `O=c1c(-c2cccs2)nc2cnc(N3CCOCC3)nc2n1-c1ccccc1`?
ALDH1A1 inh: inconclusive; Sfp PPTase inh: 5%; G9a block: 14%[0.501 µM]; Lamin A splicing: 12%

How did O=C(Nc1ccccn1)c1sc2cc([N+](=O)[O-])ccc2c1Cl do in these assays?
Sfp PPTase inh: 6.3µM*; G9a block: 1.6µM*; miR-21 FLuc: -44%; Sfp PPTase conf: 3.7µM*

How did O=C(NCCCN1CCOCC1)c1sc2cc([N+](=O)[O-])ccc2c1Cl do in these assays?
ALDH1A1 inh: 7.9µM*; Sfp PPTase inh: 0.89µM*; G9a block: 0.89µM*; Lamin A splicing: -8%[46 µM]; miR-21 FLuc: -1%; KDM4E inh: inconclusive; Sfp PPTase conf: 2.4µM*

Results for COC(=O)Cn1c(-c2ccc(OC)cc2)c(-c2ccc(OC)cc2)nnc1=O ?
Sfp PPTase inh: 50µM*; G9a block: -14%[0.501 µM]; miR-21 FLuc: -1%; Sfp PPTase conf: 8%

How did CCSc1nc2ccccc2[nH]1 do in these assays?
ALDH1A1 inh: 0%; Sfp PPTase inh: 7%; G9a block: 7%[12.7 µM]; Lamin A splicing: 6%; miR-21 FLuc: -12%; KDM4E inh: -1%

How did Nc1ccccc1Sc1nc2ccccc2[nH]1 do in these assays?
ALDH1A1 inh: 13µM*; Sfp PPTase inh: 7.9µM*; G9a block: 7.1µM*; Lamin A splicing: inconclusive; miR-21 FLuc: -3%; KDM4E inh: 13µM*; Sfp PPTase conf: 37µM*

What do the screens show for `N#C/C(=C/N1CCOCC1)c1ccccc1`?
ALDH1A1 inh: inconclusive; Sfp PPTase inh: 8%; G9a block: -2%; Lamin A splicing: -13%; miR-21 FLuc: -13%; KDM4E inh: -2%

Results for N#C/C(=C/c1ccc(N2CCOCC2)o1)c1ccc(Cl)cc1 ?
ALDH1A1 inh: 13µM*; Sfp PPTase inh: 0.71µM*; G9a block: inconclusive; Lamin A splicing: 13%; miR-21 FLuc: 22%; KDM4E inh: inconclusive; Sfp PPTase conf: 13µM*

2 records picked at random from those above:
What do the screens show for `CCSc1nnc(NC(=O)C2CCCCC2C(=O)OCC(F)(F)C(F)F)s1` (stereo not drawn)?
ALDH1A1 inh: inconclusive; Sfp PPTase inh: 22µM*; G9a block: inconclusive; Lamin A splicing: -7%; miR-21 FLuc: -11%; KDM4E inh: -5%; Sfp PPTase conf: 53µM*

How did CCSc1nc2ccccc2[nH]1 do in these assays?
ALDH1A1 inh: 0%; Sfp PPTase inh: 7%; G9a block: 7%[12.7 µM]; Lamin A splicing: 6%; miR-21 FLuc: -12%; KDM4E inh: -1%

Carrying on:
What do the screens show for `O=C(N/N=C/c1ccc(N2CCCCC2)o1)C(O)(c1ccccc1)c1ccccc1`?
ALDH1A1 inh: inconclusive; Sfp PPTase inh: 8.9µM*; G9a block: 13µM*; Lamin A splicing: 5%; miR-21 FLuc: -5%; KDM4E inh: inconclusive; Sfp PPTase conf: 37µM*

Results for O=C(O)c1ccc(CSC2CCCCC2)cc1 ?
Sfp PPTase inh: 1%; G9a block: 1%; miR-21 FLuc: -8%

Results for COc1cccc(-c2nn(C)c3sc(C(=O)NCc4ccc(C)o4)cc23)c1 ?
ALDH1A1 inh: inconclusive; Sfp PPTase inh: 3.5µM*; G9a block: inconclusive; Lamin A splicing: 4%; miR-21 FLuc: 13%; KDM4E inh: -3%; Sfp PPTase conf: 24µM*

How did COc1cccc(-c2nn(C)c3sc(C(=O)NCc4ccc(OC)cc4OC)cc23)c1 do in these assays?
G9a block: inconclusive; miR-21 FLuc: 21%

What do the screens show for `Cc1cc2nc3ccc(=[N+](C)C)cc-3sc2cc1N`?
Sfp PPTase inh: 25µM*; miR-21 FLuc: inconclusive; KDM4E inh: 14µM*; Sfp PPTase conf: 37µM*

Results for Cc1nc2cc(C)c(C)cc2s1 ?
ALDH1A1 inh: 8%; Sfp PPTase inh: 16%; G9a block: -30%; miR-21 FLuc: -2%; KDM4E inh: 9%

What do the screens show for `Cn1c(Cl)cnc1C(O)(c1ccccc1)c1ccccc1`?
Sfp PPTase inh: 8%; miR-21 FLuc: 1%; KDM4E inh: -12%

Results for CCC(C)(C)n1nnnc1C(c1ccc(O)c(OC)c1)N1CCc2ccccc2C1 (stereo not drawn) ?
ALDH1A1 inh: inconclusive; Sfp PPTase inh: 3.5µM*; G9a block: inconclusive; Lamin A splicing: -5%; miR-21 FLuc: -1%; KDM4E inh: inconclusive; Sfp PPTase conf: 5.9µM*

What do the screens show for `CCC(C)(C)n1nnnc1C(c1ccccc1)N1CCc2ccccc2C1` (stereo not drawn)?
ALDH1A1 inh: 10%; Sfp PPTase inh: 15%; G9a block: 12%[12.7 µM]; Lamin A splicing: 3%; miR-21 FLuc: -3%; KDM4E inh: -2%

Results for CCCN(C(=O)Cn1ncc2c([nH]c3ccccc32)c1=O)c1ccc(F)cc1 ?
G9a block: -31%[59 µM]; Lamin A splicing: 0%[46 µM]; miR-21 FLuc: 15%

How did COc1ccc(Cn2c(CO)cnc2SCc2ccc(C)cc2)cc1 do in these assays?
G9a block: -32%[59 µM]; Lamin A splicing: 8%[46 µM]; miR-21 FLuc: -27%
